Measurements as given in ChEMBL document CHEMBL1142953, “Calcitonin gene-related peptide analogues with aza and indolizidinone amino acid residues reveal conformational requirements for antagonist activity at the human calcitonin gene-related peptide 1 receptor” (J Med Chem, 2007).
pIC50: −log10 of the molar value.

Sequences of proteins named here, by UniProt entry; tags and fusion partners are left off. A change or cut given only in a name is not applied to a line headed by its entry.
UniProt O60894: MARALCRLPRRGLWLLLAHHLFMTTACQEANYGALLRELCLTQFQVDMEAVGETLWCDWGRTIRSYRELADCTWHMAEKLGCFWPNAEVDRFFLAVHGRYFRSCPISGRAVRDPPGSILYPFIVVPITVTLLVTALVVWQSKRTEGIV
UniProt Q16602: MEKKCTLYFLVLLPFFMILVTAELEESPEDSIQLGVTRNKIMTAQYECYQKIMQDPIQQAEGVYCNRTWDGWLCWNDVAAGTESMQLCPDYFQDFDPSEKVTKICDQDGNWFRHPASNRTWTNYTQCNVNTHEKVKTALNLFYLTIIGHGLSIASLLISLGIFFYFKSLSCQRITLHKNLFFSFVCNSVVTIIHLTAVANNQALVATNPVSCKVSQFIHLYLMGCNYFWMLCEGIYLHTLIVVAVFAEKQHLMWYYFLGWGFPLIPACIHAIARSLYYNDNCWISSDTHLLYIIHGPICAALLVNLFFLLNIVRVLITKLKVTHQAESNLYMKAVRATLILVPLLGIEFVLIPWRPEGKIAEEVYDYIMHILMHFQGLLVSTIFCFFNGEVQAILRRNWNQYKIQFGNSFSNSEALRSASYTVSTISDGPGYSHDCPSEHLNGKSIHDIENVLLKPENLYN

Target: Calcitonin gene-related peptide type 1 receptor (Homo sapiens, UniProt O60894+Q16602)
Assay: Antagonist activity against human CGRP1 expressed in HEK293 cells assessed as inhibition of human alpha-CGRP-promoted cAMP production
Assay type: functional, cell-based
Summary of the method: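 HEK293 cells stably expressing CRLR, seeded at 5000 cells/well. Cells preincubated with peptide analogues for 15 min at 37 °C, then stimulated with 0.5 nM α-CGRP for 15 min at 37 °C. cAMP measured with a fluorescence-based kit. Peptides tested up to 100 µM. At least three independent experiments in triplicate, analysed by nonlinear curve fitting; mean ± SEM.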

pIC50: 6.15
SMILES: CC(C)[C@H](NC(=O)[C@H](CC(=O)O)NC(=O)[C@@H](NC(=O)[C@@H]1CCCN1C(=O)[C@@H](NC(=O)[C@@H](N)Cc1ccccc1)C(C)C)[C@@H](C)O)C(=O)NCC(=O)N1CCC[C@H]1C(=O)N[C@@H](Cc1ccccc1)C(=O)N[C@@H](C)C(=O)N[C@@H](Cc1ccccc1)C(N)=O
